For one assay, the target named is hERG channel (Homo sapiens, UniProt Q12809). In words: hERG channel binding assay (predictor hERG fluorescence polarization).
The target in another assay is T1, ERRβ (Homo sapiens, UniProt O95718).
T1 construct: purchased Life Technologies
T1 sequence (O95718 208-432 limits assumed): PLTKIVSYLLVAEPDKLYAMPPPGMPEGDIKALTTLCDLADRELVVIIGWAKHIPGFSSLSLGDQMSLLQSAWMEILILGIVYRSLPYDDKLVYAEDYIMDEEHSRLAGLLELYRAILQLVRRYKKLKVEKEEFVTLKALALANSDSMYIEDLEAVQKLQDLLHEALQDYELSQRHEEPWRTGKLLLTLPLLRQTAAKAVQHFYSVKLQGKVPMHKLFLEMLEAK
Nature of the assay: TR-FRET (LanthaScreen) ERRβ binding assay. The conditions noted are these: maximum concentration tested 10 μM. The method, then: ERRγ binding assay was conducted with Lantascreen assay system (Life Technologies, Grand Island, NY, USA), which was based on TR-FRET, followed by manufacturer’s instruction. Briefly, compounds were serially diluted with 2-fold staring from 10 μM and 10 μL of each diluent was added in 384 well plate. Then, GST-conjugated ERRγ LBD (ligand-binding domain) was added to be 5 nM. Next, the mixture of fluorescien-conjugated coactivator PGC1a (final concentration to be 500 nM) and Tb-a-GST antibody (final concentration to be 5 nM) was added. The reaction mixture was incubated at rt in dark state for 1 h. TR-FRET activity was measured at 340 nm excitation and 495 nm/520 nm dual emission using microplate reader (Biotek, SynergyNeo, Winooski, VT, USA) and IC50 value was calculated with the Prism 6 software.
ERRs and ERα binding assay used same assay system as ERRγ’s, Lanthascreen assay system. Therefore, procedure was same as ERRγ binding assay except tested enzymes (ERRα, ERRβ, ERα). Used reference compounds were 4-OHT 1 for ERα and ERRβ binding assay, and XCT790 for ERRα binding assay.

Sequences of proteins named here, by UniProt entry; tags and fusion partners are left off. A change or cut given only in a name is not applied to a line headed by its entry.
UniProt Q12809: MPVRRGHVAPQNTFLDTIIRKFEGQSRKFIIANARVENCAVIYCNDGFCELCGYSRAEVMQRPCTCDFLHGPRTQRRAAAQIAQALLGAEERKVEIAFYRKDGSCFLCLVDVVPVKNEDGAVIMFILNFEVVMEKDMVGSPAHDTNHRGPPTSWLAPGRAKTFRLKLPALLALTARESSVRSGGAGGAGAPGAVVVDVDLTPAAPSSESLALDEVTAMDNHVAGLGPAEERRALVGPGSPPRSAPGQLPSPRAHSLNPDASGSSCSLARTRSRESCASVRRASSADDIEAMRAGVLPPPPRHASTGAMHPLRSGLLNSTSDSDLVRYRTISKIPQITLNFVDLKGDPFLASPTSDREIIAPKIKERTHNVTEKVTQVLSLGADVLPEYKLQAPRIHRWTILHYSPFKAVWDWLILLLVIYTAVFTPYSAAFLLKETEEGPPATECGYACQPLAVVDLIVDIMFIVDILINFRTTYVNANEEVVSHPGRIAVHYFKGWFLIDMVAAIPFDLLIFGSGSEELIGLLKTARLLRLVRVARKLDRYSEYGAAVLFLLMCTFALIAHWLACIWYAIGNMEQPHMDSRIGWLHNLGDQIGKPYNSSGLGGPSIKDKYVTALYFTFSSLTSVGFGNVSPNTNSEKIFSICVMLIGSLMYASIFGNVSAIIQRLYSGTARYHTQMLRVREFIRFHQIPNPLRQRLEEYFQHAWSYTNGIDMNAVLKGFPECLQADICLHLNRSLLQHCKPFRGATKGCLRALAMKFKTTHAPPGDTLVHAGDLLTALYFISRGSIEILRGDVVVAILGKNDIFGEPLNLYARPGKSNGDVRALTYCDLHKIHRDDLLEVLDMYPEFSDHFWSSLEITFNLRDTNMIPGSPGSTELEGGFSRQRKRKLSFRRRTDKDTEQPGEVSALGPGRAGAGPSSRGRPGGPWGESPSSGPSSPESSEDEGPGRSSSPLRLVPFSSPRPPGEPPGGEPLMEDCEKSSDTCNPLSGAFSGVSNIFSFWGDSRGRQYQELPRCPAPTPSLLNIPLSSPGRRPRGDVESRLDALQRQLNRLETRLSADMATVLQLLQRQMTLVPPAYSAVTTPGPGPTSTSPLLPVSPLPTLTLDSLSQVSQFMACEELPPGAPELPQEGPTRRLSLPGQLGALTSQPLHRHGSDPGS

A value given as a limit tells only on which side of the number the result lay.

For `CN(C)CCOc1ccc(/C(=C(/CCCO)c2ccccc2)c2ccc(O)cc2)cc1` [Compound 4, GSK5182, reference compound], the IC50 on hERG channel was over 30 µM; on ERRβ, over 10 µM.
